# The list shows a part of the results, in another mix than the full data. Calls of active or inactive are those of the source.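 The calls were made as follows: active = inhibition above a per-campaign cutoff equal to the mean of compounds falling between control-based bounds plus 3 SD (cut at about 20% in these data); inactive = the rest.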
# Sequences of proteins named here, by UniProt entry; tags and fusion partners are left off. A change or cut given only in a name is not applied to a line headed by its entry.
# UniProt O14672: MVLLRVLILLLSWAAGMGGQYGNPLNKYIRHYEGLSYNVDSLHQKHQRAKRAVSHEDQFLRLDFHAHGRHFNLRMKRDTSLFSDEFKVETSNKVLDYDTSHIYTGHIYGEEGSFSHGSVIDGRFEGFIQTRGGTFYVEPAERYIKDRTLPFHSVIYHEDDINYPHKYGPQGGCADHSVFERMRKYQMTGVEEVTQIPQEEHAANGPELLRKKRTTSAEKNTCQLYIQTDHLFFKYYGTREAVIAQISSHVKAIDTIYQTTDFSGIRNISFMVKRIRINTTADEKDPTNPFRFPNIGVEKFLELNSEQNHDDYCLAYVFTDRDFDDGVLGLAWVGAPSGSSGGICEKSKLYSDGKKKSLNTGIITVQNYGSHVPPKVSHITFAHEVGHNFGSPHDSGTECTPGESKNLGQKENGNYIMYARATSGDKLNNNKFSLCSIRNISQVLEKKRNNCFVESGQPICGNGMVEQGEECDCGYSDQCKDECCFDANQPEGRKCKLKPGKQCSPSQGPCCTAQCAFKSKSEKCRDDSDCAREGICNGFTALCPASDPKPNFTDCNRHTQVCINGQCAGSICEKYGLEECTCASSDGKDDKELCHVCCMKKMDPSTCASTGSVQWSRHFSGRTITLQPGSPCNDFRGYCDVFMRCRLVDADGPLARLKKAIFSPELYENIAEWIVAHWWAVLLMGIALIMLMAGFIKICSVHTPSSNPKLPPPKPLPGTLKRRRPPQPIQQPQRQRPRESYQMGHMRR
# Biological target: Disintegrin and metalloproteinase domain-containing protein 10 (Homo sapiens) (UniProt O14672)
# Experiment: human ADAM10 inhibitors, primary screen, biochemical, QFRET, HTS (AID 720582);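 also: 0% = DMSO wells while the 100% control is not disclosed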
# Conditions: recombinant ADAM10, EDANS/DABCYL FRET peptide cleavage, 3 h; at 7 µM; hits give high values
row,Structure (SMILES),inhibition
1,c1nnnn1CCn1cnnn1,inactive: 2.32%
2,CC(C)C(=O)NC(Sc1ccccc1)C(Cl)(Cl)Cl (centres undefined),inactive: -8.1%
3,O=P(Nc1nccs1)(c1ccccc1)c1ccccc1,inactive: 3.49%
4,CC(C)(C)C(=O)NC(Sc1ccccc1)C(Cl)(Cl)Cl (centres undefined),inactive: 1.93%
5,CCc1cc(O)c([N+](=O)[O-])c(C)c1[N+](=O)[O-],inactive: -9.87%
6,O=P1(Nc2nc3ccc(Cl)cc3s2)COc2ccccc2O1 (centres undefined),inactive: -7.08%
7,CCOc1ccc(C2=NCC(CBr)S2)cc1 (centres undefined),inactive: 6.34%
8,CC(=O)Nc1ccc([As](=O)(O)O)c(O)c1,inactive: -8.34%
9,CC(=O)Nc1ccc(Oc2c([N+](=O)[O-])cc([N+](=O)[O-])cc2[N+](=O)[O-])cc1,inactive: -9.65%
10,Cc1ccccc1CN(C)C(=O)COC(=O)C(O)(c1ccccc1)c1ccccc1,inactive: -5.96%
11,C[C@H]1OP(=O)(Oc2ccccc2)C[C@@H]2O[C@@H]21 (some centres undefined),inactive: 6.77%
12,C[C@@H]1C=CCP(=O)(Oc2ccccc2)O1 (some centres undefined),inactive: 3.31%
13,CC(=O)c1ccc(N2CC2c2ccncc2)cc1 (centres undefined),inactive: 0.76%
14,N#C/C(=C\c1ccc(N(CCBr)CCBr)cc1)C(N)=O,inactive: -0.36%
15,COC(=O)C1(C)COP(=O)(NCc2ccccc2)OC1 (centres undefined),inactive: -2.73%
16,O=P1(N(CCCl)CCCl)OCCC2CCCCN21 (centres undefined),inactive: -3.12%
17,c1ccc(-c2nn[nH]n2)c(-c2nn[nH]n2)c1,inactive: -10.2%
18,Cc1ccc(NP(=O)(Oc2cccc(C)c2)Oc2cccc(C)c2)nc1,inactive: 1.51%
19,CCNC(=S)/N=C(\N)N[N+](=O)[O-],inactive: -0.92%
20,O=C(NC1CCS(=O)(=O)C1)NP(=S)(Oc1ccccc1)Oc1ccccc1 (centres undefined),inactive: 6.41%
21,CC(NC(=O)COC(=O)C(O)(c1ccccc1)c1ccccc1)c1ccccc1 (centres undefined),inactive: -5.05%
22,Cc1ccccc1OP(=O)(Nc1ccccn1)Oc1ccccc1C,inactive: -17.5%
23,O=c1c2cc([N+](=O)[O-])ccc2[nH]c2c([N+](=O)[O-])cc([N+](=O)[O-])cc12,inactive: 1.15%
24,CN(C)C(=O)Oc1noc2ccccc12,inactive: 0.68%
25,O=C(OC1CN2CCC1CC2)c1ccccc1 (centres undefined),inactive: -2.58%

row,Structure (SMILES),inhibition
1,CCC(=O)N1C2C3N(C(=O)CC)C1C1N(C(=O)CC)C(C(N1C(=O)CC)N3C(=O)CC)N2C(=O)CC,inactive: -9.39%
2,COC(=O)c1cc2c(s1)N=C(c1ccccc1)N(C)P2(=O)N1CCOCC1 (centres undefined),inactive: 2.71%
3,Cc1ccc(OP(=O)(Nc2ccccn2)Oc2ccc(C)cc2)cc1,inactive: -1.63%
4,CC(=O)NC(SC(=S)N(CC(C)C)CC(C)C)C(Cl)(Cl)Cl (centres undefined),inactive: -4.54%
5,CCn1c(=O)n(C2CCN(CC3CCCCCCC3)C[C@H]2CO)c2ccccc21 (some centres undefined),inactive: -0.9%
6,Cc1cc(SC(NC(=O)c2ccc(F)cc2)C(Cl)(Cl)Cl)ncn1 (centres undefined),inactive: -3.02%
7,CCOP(=O)(Nc1ccccc1)OCC,inactive: 0.91%
8,Cc1ccc(NP(=O)(Oc2ccccc2F)Oc2ccccc2F)nc1,inactive: -0.05%
9,CN(C(=O)Cc1ccc(Cl)c(Cl)c1)[C@H]1CCCC[C@@H]1N1CCCC1,inactive: -5.98%
10,O=P(Nc1nc2ccc(Cl)cc2s1)(c1ccccc1)c1ccccc1,inactive: 9.31%
11,CN(C)P(=O)(N(C)C)n1c(Nc2ccccc2)nnc1-c1ccccc1,inactive: 3.26%
12,CC(=O)Nc1ccc([As](=O)(O)O)cc1,inactive: 11.7%
13,O=C(O)c1ccccc1[As](=O)(O)O,inactive: -0.53%
14,CCCC1OP(N)(=O)OCC1CC (centres undefined),inactive: 3.56%
15,Nc1cccc2ccc([As](=O)(O)O)cc12,inactive: -327%
16,CN(C(=O)Cc1ccccc1)C1CC[C@@]2(CCCO2)C[C@@H]1N1CCCC1 (some centres undefined),inactive: -16.2%
17,CCN(N=Nc1nonc1N)c1nonc1N,inactive: 8.15%
18,CN1CCCC(OC(=O)C(c2ccccc2)c2ccccc2)C1 (centres undefined),inactive: -1.54%
19,Clc1ccc(Cl)c(NC2=NCC(CBr)S2)c1 (centres undefined),inactive: -0.72%
20,COc1ccccc1OP(=O)(Nc1ccc(C)cn1)Oc1ccccc1OC,inactive: -1.59%
21,Cc1ccc(OP(=O)(Nc2nccs2)Oc2ccc(C)cc2)cc1,inactive: 1.15%
22,CN(C(=O)Cc1ccc(Cl)c(Cl)c1)[C@H]1CCCC[C@H]1N1CCCC1,inactive: 7.85%
23,Cc1ccc(N/C(=N/P(=O)(N2CCOCC2)N2CCOCC2)N2CCOCC2)cc1,inactive: 1.08%
24,NC(=O)c1cc([N+](=O)[O-])cc([N+](=O)[O-])c1N,inactive: 3.75%
25,Oc1ccccc1CNc1ccccn1,inactive: -5.1%

row,Structure (SMILES),inhibition
1,O=C(NC(Sc1ccncn1)C(Cl)(Cl)Cl)c1ccccc1 (centres undefined),inactive: -5.99%
2,Nc1cc(N)c2nonc2c1[N+](=O)[O-],inactive: -3.22%
3,CC(C)CC(=O)NC(Sc1ccc(Cl)cc1)C(Cl)(Cl)Cl (centres undefined),inactive: 5.02%
4,Cc1ccc(NP(=O)(Oc2ccccc2)Oc2ccccc2)nc1,inactive: -33%
5,CCc1nc2c(n1)c1c(non1O)c1c2no[n+]1[O-],inactive: 1.45%
6,O=[N+]([O-])c1cc([N+](=O)[O-])c(CCNc2ccccc2)c([N+](=O)[O-])c1,inactive: 13.5%
7,O=[N+]([O-])c1cccc2n[nH]nc12,inactive: 2.06%
8,CC(=O)N1C2C3N(C(C)=O)C1C1N(C(C)=O)C(C(N1C(C)=O)N3C(C)=O)N2C(C)=O,inactive: 8.01%
9,COc1ccc(C2=NCC(CBr)S2)cc1 (centres undefined),inactive: -7.42%
10,CC1CCN(C(=O)Oc2c(Cl)cc(Cl)c3cccnc23)CC1,inactive: 4.07%
11,c1cc(-c2nn[nH]n2)ccc1-c1nn[nH]n1,inactive: -13.7%
12,CC(C)c1nc(Nc2ccccc2)n(P(=O)(N(C)C)N(C)C)n1,inactive: 2.2%
13,CC(C)=N/N=C(\N)N[N+](=O)[O-],inactive: -0.06%
14,CN(C)C(=O)OCCc1n(C)cc[n+]1C,inactive: -0.03%
15,CCN(/C(=N/P(=O)(N1CCOCC1)N1CCOCC1)N1CCOCC1)c1ccc(OC)cc1,inactive: 1.66%
16,Nc1ccc([As](=O)(O)c2ccc(N)cc2)cc1,inactive: -6.53%
17,C[N+]1=C2C=CC=CC=C2SC12C([N+](=O)[O-])=CC([N+](=O)[O-])=C[C-]2[N+](=O)[O-] (centres undefined),inactive: 5.07%
18,O=C(Nc1cc([As](=O)(O)O)ccc1O)c1ccccc1,inactive: 5.77%
19,O=P1(N(CCCl)CCCl)OCCCS1 (centres undefined),inactive: -15.6%
20,O=C(O)CNc1ccc([As](=O)(O)O)cc1,inactive: 5.39%
21,COC(=O)C1(C)COP(=O)(Nc2ccccc2)OC1 (centres undefined),inactive: -10.1%
22,O=[N+]([O-])c1cccc(NC2=NCC(CBr)S2)c1 (centres undefined),inactive: 6.77%
23,O=[N+]([O-])c1ncn(CCn2ncnc2[N+](=O)[O-])n1,inactive: -5.73%
24,CC(C)(C)C(=O)NC(Sc1ccncn1)C(Cl)(Cl)Cl (centres undefined),inactive: 4.16%

# Reference: PubChem BioAssay AID720582 (The Scripps Research Institute Molecular Screening Center, 2013)
